According to patent US9072703B2, “Glucose-dependent insulinotropic polypeptide analogues” (Ipsen Pharma S.A.S., priority 2008, dated 2015):

Key:
[1] = unmodified GIP; Said and Mutt, 1970; cited from earlier work
[2] = biological target: T1, human recombinant GIP receptor (Homo sapiens, UniProt P48546); assay: In vitro hGIP receptor binding assay; settings: membranes of CHO-K1 cells expressing human recombinant GIP receptor; 0.05 nM [125I]GIP
T1 construct: expressed in transfected cells; host or cells: CHO-K1 clonal cells (membrane preparation)
T1 sequence (P48546 22-466): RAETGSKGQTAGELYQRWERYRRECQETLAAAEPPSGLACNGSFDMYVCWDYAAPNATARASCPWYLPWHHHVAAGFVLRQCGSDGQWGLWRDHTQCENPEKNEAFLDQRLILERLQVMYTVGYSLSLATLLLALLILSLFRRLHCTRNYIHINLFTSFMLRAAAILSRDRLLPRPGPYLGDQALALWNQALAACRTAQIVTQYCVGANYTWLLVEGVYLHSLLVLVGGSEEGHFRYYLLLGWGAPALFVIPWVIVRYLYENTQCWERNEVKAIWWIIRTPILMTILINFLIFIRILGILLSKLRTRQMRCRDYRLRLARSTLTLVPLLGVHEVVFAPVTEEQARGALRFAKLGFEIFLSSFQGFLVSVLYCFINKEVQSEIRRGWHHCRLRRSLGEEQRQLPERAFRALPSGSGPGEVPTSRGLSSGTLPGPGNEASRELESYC
Method: A. In Vitro hGIP Receptor Binding Assay Membranes for in vitro receptor binding assays were prepared by homogenizing the CHO-K1 clonal cells expressing the human recombinant GIP receptor, with a Brinkman Polytron (setting 6, 15 sec), in ice-cold 50 mM Tris-HCl and then subjected to two centrifugations at 39,000 g for 10 minutes, with a resuspension in fresh buffer in between. […] The final assay volume was 0.5 ml. The incubations were terminated by rapid filtration through GF/C filters (pre-soaked in 0.5% polyethylenimine) using a Brandel filtration manifold. Each tube and filter were then washed three times with 5-ml aliquots of ice-cold buffer.

Row | Substance | in vivo half-life [1] | Ki [2]
1 | Glucose-dependent insulinotropic polypeptide [GIP, reference compound] | about 2 minutes | 
2 | [A5c^11,41, Cys^33(succinimide-N-20K PEG)]hGIP(1-42)-NH2 [Example 44] |  | 760 pM
